Consider eleven molecules from patent US20260116920A1, “HUMAN TRANSFERRIN RECEPTOR BINDING PEPTIDE” (PEPTIDREAM INC., priority 2021, published 2026).

By UniProt entry, the sequences of proteins in these tests, tags left out. Residues count along the entry.
UniProt P02786, 89-760 limits assumed: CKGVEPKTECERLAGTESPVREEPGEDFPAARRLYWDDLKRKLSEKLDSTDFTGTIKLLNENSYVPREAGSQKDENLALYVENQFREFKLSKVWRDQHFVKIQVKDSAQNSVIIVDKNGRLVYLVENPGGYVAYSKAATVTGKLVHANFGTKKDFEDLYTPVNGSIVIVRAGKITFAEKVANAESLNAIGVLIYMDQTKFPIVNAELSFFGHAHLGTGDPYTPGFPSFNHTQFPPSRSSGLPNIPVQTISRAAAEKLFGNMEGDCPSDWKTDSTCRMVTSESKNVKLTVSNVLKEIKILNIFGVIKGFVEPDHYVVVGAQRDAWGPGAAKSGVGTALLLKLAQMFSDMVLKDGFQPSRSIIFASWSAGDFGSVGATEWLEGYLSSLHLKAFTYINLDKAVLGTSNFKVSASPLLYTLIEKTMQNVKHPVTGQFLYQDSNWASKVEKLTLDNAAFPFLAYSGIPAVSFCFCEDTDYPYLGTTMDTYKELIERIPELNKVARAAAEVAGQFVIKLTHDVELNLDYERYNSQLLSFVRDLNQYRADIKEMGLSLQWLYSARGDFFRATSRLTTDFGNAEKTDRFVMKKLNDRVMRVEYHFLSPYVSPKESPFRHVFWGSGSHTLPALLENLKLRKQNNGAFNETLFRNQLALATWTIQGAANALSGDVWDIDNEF

The target of the assay is T1, human transferrin receptor (hTfR) (Homo sapiens, UniProt P02786).
T1 construct: made in house
As to the kind of experiment: Evaluation of molecular interaction between transferrin receptor (hTfR) and peptide using surface plasmon resonance (SPR). Type of assay: binding. The protocol: Evaluation Test of Molecular Interaction Between Transferrin Receptor (hTfR) and Peptide Using Surface Plasmon Resonance (SPR)
The intermolecular interactions of various synthesized peptides with the transferrin receptor (hTfR) by surface plasmon resonance (SPR) of the peptides were tested by the methods described below. Specific test methods are shown below.
NTA sensor chip (Global Life Sciences Technologies Japan K.K.) was inserted into BiacoreT200 (Global Life Sciences Technologies Japan K.K.), then the priming operation was performed three times by using running buffer containing: 10 mM HEPES pH 8.0 (Nacalai Tesque, Inc.), 150 mM NaCl (Nacalai Tesque, Inc.), 0.05% Tween 20 (Nacalai Tesque, Inc.), 0.1% BSA (SIGMA-ALDRICH) and 1.0% DMSO (FUJIFILM Wako Pure Chemical Corporation), and equilibrated at a flow rate of 30 μL/min. 350 mM EDTA solution was reacted at a flow rate of 10 μL/min for 60 seconds, 0.5 mM […] solution (Kishida Chemical Co., Ltd.) was reacted at a flow rate of 10 μL/min for 60 seconds, and then the NTA sensor chip was washed with 3 mM EDTA solution (Nacalai Tesque, Inc.) at a flow rate of 10 μL/min for 60 seconds. After mixing 50 μL each of 60 mM EDC solution (Global Life Science Technologies Japan K.K.) and 650 mM NHS solution (Global Life Science Technologies Japan K.K.), the reaction was carried out at a flow rate of 10 μL/min for 420 seconds. 150 μL of 0.5 μM hTfR dimer solution was prepared by dilution with running buffer and reacted at a flow rate of 10 μL/min for 300 seconds to immobilize hTfR on the NTA sensor chip. For the human transferrin receptor (hTfR), recombinant hTfR described in Example 2 of WO2018/124121 was used. After immobilization, capping was performed by reacting with 1.0 M ethanolamine solution (Global Life Sciences Technologies Japan K.K.) at a flow rate of 10 μL/min for 420 seconds. Peptide lysate prepared in DMSO solution to 10 mM was diluted with running buffer to be a final concentration of 10 μM peptide lysate, then peptide solutions of 100 nM, 50 nM, 25 nM, 10 nM, and 5 nM were prepared. Using the above samples, the kinetics of the peptide against hTfR was obtained by SPR measurement.
The kinetic evaluation model was single-cycle kinetics, and curve fitting was performed using Biacore T200 Evaluation Software Version 3.0 (Global Life Science Technologies Japan K.K.). The binding of the peptide to hTfR was evaluated by performing curve fitting on the obtained sensorgram by least squares method and obtaining the KD value.

Where [1] appears, read: KD class of peptide with linker binding to hTfR, by SPR (TABLE 5), read-out: SPR.
Setting [2] is: SPR, KD class of the peptide with linker for hTfR by surface plasmon resonance.
Setting [3] is: KD class of the peptide with linker for hTfR by surface plasmon resonance, read-out: SPR.

Molecules are shown by their SMILES. Like-named read-outs stand apart in the source and are kept apart here.

Turning to `CC[C@H](C)[C@@H]1NC(=O)[C@H](Cc2ccc(O)cc2)NC(=O)[C@H](Cc2ccc(O)cc2)NC(=O)[C@H](CC(N)=O)NC(=O)[C@H](Cc2c[nH]c3ccccc23)NC(=O)[C@H](C)NC(=O)[C@H](Cc2ccccc2)N(C)C(=O)[C@H](C(C)C)NC(=O)[C@H](C)NC(=O)CSC[C@@H](C(=O)NCCOCCOCCOCCOCCOCCOCCOCCOCCOCCOCCOCCOCCC(N)=O)NC(=O)[C@H](Cc2ccc(O)cc2)N(C)C(=O)[C@H](Cc2ccc(O)cc2)NC(=O)[C@H](CCCNC(=N)N)NC(=O)[C@H](CCCNC(=N)N)NC(=O)[C@H]([C@@H](C)CC)NC1=O` [compound 258], the Kd (SPR, immobilized recombinant hTfR, single-cycle kinetics, substitution variants of 894_3151, read-out: KD) was found to be 0.177 µM.
For the molecule `CC[C@H](C)[C@@H]1NC(=O)[C@H](Cc2ccc(O)cc2)NC(=O)[C@H](Cc2ccc(O)cc2)NC(=O)[C@H](CC(N)=O)NC(=O)[C@H](Cc2c[nH]c3ccccc23)NC(=O)[C@H](C(C)C)NC(=O)[C@H](Cc2ccccc2)N(C)C(=O)[C@H](C(C)C)NC(=O)[C@H](C)NC(=O)CSC[C@@H](C(=O)NCC(=O)N[C@H](CCC(=O)O)C(=O)N[C@H](CCC(=O)O)C(=O)N[C@H](CCC(=O)O)C(=O)N[C@H](CO)C(=O)N[C@H](CO)C(=O)N[C@@H](CCCCN)C(N)=O)NC(=O)[C@H](Cc2ccc(O)cc2)N(C)C(=O)[C@H](Cc2ccc(O)cc2)NC(=O)[C@H](CCCNC(=N)N)NC(=O)[C@H](CCCNC(=N)N)NC(=O)[C@H]([C@@H](C)CC)NC1=O` [compound 325], the Kd under setting [1] was 0.001 to 0.1 µM.
The molecule `CC[C@H](C)[C@@H]1NC(=O)[C@H](Cc2ccc(O)cc2)NC(=O)[C@H](Cc2ccc(O)cc2)NC(=O)[C@H](CC(N)=O)NC(=O)[C@H](Cc2c[nH]c3ccccc23)N(C)C(=O)[C@H](C(C)C)NC(=O)[C@H](Cc2ccccc2)N(C)C(=O)[C@H](C(C)C)NC(=O)[C@H](C)NC(=O)CSC[C@@H](C(=O)NCC(=O)NCC(=O)NCC(=O)NCC(=O)N[C@@H](CO)C(=O)N[C@@H](CO)C(=O)N[C@@H](CCCCN=[N+]=[N-])C(N)=O)NC(=O)[C@H](Cc2ccc(O)cc2)N(C)C(=O)[C@H](Cc2ccc(O)cc2)NC(=O)[C@H](CCCNC(=N)N)NC(=O)[C@H](CCCCN)NC(=O)[C@H]([C@@H](C)CC)NC1=O` [compound 275] displayed a Kd under setting [2] of 0.001 to 0.1 µM.
On to `CC[C@H](C)[C@@H]1NC(=O)[C@H](Cc2ccc(OCC(=O)O)cc2)NC(=O)[C@H](Cc2ccc(N)nc2)NC(=O)[C@H](CC(N)=O)NC(=O)[C@H](Cc2c[nH]c3ccccc23)NC(=O)[C@H](C(C)C)NC(=O)[C@H](Cc2cccc(Cl)c2)N(C)C(=O)[C@H](C(C)C)NC(=O)[C@H](C)NC(=O)CSC[C@@H](C(=O)NCC(=O)N[C@H](CCC(=O)O)C(=O)N[C@H](CO)C(=O)N[C@H](CO)C(=O)N[C@H](CO)C(=O)N[C@H](CO)C(=O)N[C@H](CCCCN)C(N)=O)NC(=O)[C@H](Cc2ccc(O)cc2)N(C)C(=O)[C@H](Cc2cccc(C(=O)O)c2)NC(=O)[C@H](CCCNC(=N)N)NC(=O)[C@H](CCC(=O)NCCOCCOCCOCCOCCOCCOCCOCCOC)NC(=O)[C@H]([C@@H](C)CC)NC1=O` [compound 337], for which the Kd under setting [1] lay in the range of 0.001 to 0.1 µM.
For `CC[C@H](C)[C@@H]1NC(=O)[C@H](Cc2ccc(OCC(=O)O)cc2)NC(=O)[C@H](Cc2ccc(O)cc2)NC(=O)[C@H](CC(N)=O)NC(=O)[C@H](Cc2cn(CC(=O)O)c3ccccc23)NC(=O)[C@H](C(C)C)NC(=O)[C@H](Cc2cccc(Cl)c2)N(C)C(=O)[C@H](C(C)C)NC(=O)[C@H](C)NC(=O)CSC[C@@H](C(=O)NCC(=O)N[C@H](CCC(=O)O)C(=O)N[C@H](CCC(=O)O)C(=O)N[C@H](CCC(=O)O)C(=O)N[C@H](CO)C(=O)N[C@H](CO)C(=O)N[C@@H](CCCCN=[N+]=[N-])C(N)=O)NC(=O)[C@H](Cc2ccc(O)cc2)N(C)C(=O)[C@H](Cc2cccc(C(=O)O)c2)NC(=O)[C@H](CCCCN2CCOCC2)NC(=O)[C@H](CCCCN2CCOCC2)NC(=O)[C@H]([C@@H](C)CC)NC1=O` [compound 348], under setting [1], the Kd lay within 0.001 to 0.1 µM.
Under setting [2], `CC[C@H](C)[C@@H]1NC(=O)[C@H](Cc2ccc(OCC(=O)O)cc2)NC(=O)[C@H](Cc2ccc(O)cc2)NC(=O)[C@H](CC(N)=O)NC(=O)[C@H](Cc2cn(CC(=O)O)c3ccccc23)NC(=O)[C@H](C(C)C)NC(=O)[C@H](Cc2cccc(Cl)c2)N(C)C(=O)[C@H](C(C)C)NC(=O)[C@H](C)NC(=O)CSC[C@@H](C(=O)NCC(=O)N(C)CC(=O)N(C)CC(=O)N(C)CC(=O)N(C)CC(=O)N(C)CC(=O)N[C@@H](CCCCN=[N+]=[N-])C(N)=O)NC(=O)[C@H](Cc2ccc(O)cc2)N(C)C(=O)[C@H](Cc2cccc(C(=O)O)c2)NC(=O)[C@H](CCCNC(=N)N)NC(=O)[C@H](CCC(N)=O)NC(=O)[C@H]([C@@H](C)CC)NC1=O` [compound 280] yielded a Kd of 0.001 to 0.1 µM.
With `CC[C@H](C)[C@@H]1NC(=O)[C@H](Cc2ccc(O)cc2)NC(=O)[C@H](Cc2ccc(O)cc2)NC(=O)[C@H](CC(N)=O)NC(=O)[C@H](Cc2c[nH]c3ccccc23)NC(=O)[C@H](C(C)C)NC(=O)[C@H](Cc2ccccc2)N(C)C(=O)[C@H](C(C)C)NC(=O)[C@H](C)NC(=O)CSC[C@@H](C(=O)NCC(=O)N[C@H](C(=O)N[C@@H](CCCNC(N)=O)C(=O)N[C@@H](CCCCN=[N+]=[N-])C(N)=O)C(C)C)NC(=O)[C@H](Cc2ccc(O)cc2)N(C)C(=O)[C@H](Cc2ccc(O)cc2)NC(=O)[C@H](CCCNC(=N)N)NC(=O)[C@H](CCCNC(=N)N)NC(=O)[C@H]([C@@H](C)CC)NC1=O` [compound 296], the Kd under setting [3] was 0.001 to 0.1 µM.
On to `CC[C@H](C)[C@@H]1NC(=O)[C@H](Cc2ccc(OCC(=O)O)cc2)NC(=O)[C@H](Cc2ccc(O)cc2)NC(=O)[C@H](CC(N)=O)NC(=O)[C@H](Cc2cn(CC(=O)O)c3ccccc23)NC(=O)[C@H](C(C)C)NC(=O)[C@H](Cc2cccc(Cl)c2)N(C)C(=O)[C@H](C(C)C)NC(=O)[C@H](C)NC(=O)CSC[C@@H](C(=O)NCC(=O)N[C@H](CO)C(=O)N[C@H](CO)C(=O)N[C@H](CO)C(=O)N[C@H](CO)C(=O)N[C@H](CCC(=O)O)C(=O)N[C@@H](CCCCNC(C)=O)C(N)=O)NC(=O)[C@H](Cc2ccc(O)cc2)N(C)C(=O)[C@H](Cc2ccccc2)NC(=O)[C@H](CCCNC(=N)N)NC(=O)[C@H](CCCNC(=N)N)NC(=O)[C@H]([C@@H](C)CC)NC1=O` [compound 317], for which, under setting [1], the Kd was less than 0.001 µM.
Turning to `CC[C@H](C)[C@@H]1NC(=O)[C@H](Cc2ccc(OCC(=O)O)cc2)NC(=O)[C@H](Cc2ccc(N)nc2)NC(=O)[C@H](CC(N)=O)NC(=O)[C@H](Cc2c[nH]c3ccccc23)NC(=O)[C@H](C(C)C)NC(=O)[C@H](Cc2cccc(Cl)c2)N(C)C(=O)[C@H](C(C)C)NC(=O)[C@H](C)NC(=O)CSC[C@@H](C(=O)NCC(=O)N[C@H](CCC(=O)O)C(=O)N[C@H](CCC(=O)O)C(=O)N[C@H](CCC(=O)O)C(=O)N[C@H](CO)C(=O)N[C@H](CO)C(=O)N[C@@H](CCCCN=[N+]=[N-])C(N)=O)NC(=O)[C@H](Cc2ccc(O)cc2)N(C)C(=O)[C@H](Cc2cccc(C(=O)O)c2)NC(=O)[C@H](CCCNC(=N)N)NC(=O)[C@H](CCC(=O)NCCOCCOCCOCCOCCOCCOCCOCCOC)NC(=O)[C@H]([C@@H](C)CC)NC1=O` [compound 272], the Kd under setting [3] lay in the range of 0.001 to 0.1 µM.
With `CC[C@H](C)[C@@H]1NC(=O)[C@H](Cc2ccc(OCC(=O)O)cc2)NC(=O)[C@H](Cc2ccc(O)cc2)NC(=O)[C@H](CC(N)=O)NC(=O)[C@H](Cc2cn(CC(=O)O)c3ccccc23)NC(=O)[C@H](C(C)C)NC(=O)[C@H](Cc2cccc(Cl)c2)N(C)C(=O)[C@H](C(C)C)NC(=O)[C@H](C)NC(=O)CSC[C@@H](C(=O)NCC(=O)NCCOCCOCCOCCOCCOCCOCCOCCOCCOCCOCCOCCOCCOCCOCCOCCOCCOCCOCCOCCOCCOCCOCCOCCOCCC(=O)N[C@@H](CCCCN)C(N)=O)NC(=O)[C@H](Cc2ccc(O)cc2)N(C)C(=O)[C@H](Cc2cccc(C(=O)O)c2)NC(=O)[C@H](CCCCN2CCOCC2)NC(=O)[C@H](CCCCN2CCOCC2)NC(=O)[C@H]([C@@H](C)CC)NC1=O` [compound 282], the Kd under setting [3] lay within 0.001 to 0.1 µM.
For the molecule `CC[C@H](C)[C@@H]1NC(=O)[C@H](Cc2ccc(OCC(=O)O)cc2)NC(=O)[C@H](Cc2ccc(O)cc2)NC(=O)[C@H](CC(N)=O)NC(=O)[C@H](Cc2cn(CC(=O)O)c3ccccc23)NC(=O)[C@H](C(C)C)NC(=O)[C@H](Cc2cccc(Cl)c2)N(C)C(=O)[C@H](C(C)C)NC(=O)[C@H](C)NC(=O)CSC[C@@H](C(=O)NCC(=O)N[C@H](CCC(=O)O)C(=O)N[C@H](CCC(=O)O)C(=O)N[C@H](CCC(=O)O)C(=O)N[C@H](CO)C(=O)N[C@H](CO)C(=O)N[C@@H](CCCCN)C(N)=O)NC(=O)[C@H](Cc2ccc(O)cc2)N(C)C(=O)[C@H](Cc2ccccc2)NC(=O)[C@H](CCCNC(=N)N)NC(=O)[C@H](CCCNC(=N)N)NC(=O)[C@H]([C@@H](C)CC)NC1=O` [compound 265], the Kd under setting [3] is 0.001 to 0.1 µM.
